Values of other authors in patent US4795627A.

Tested on: high affinity transport system for choline
Settings: in vivo

## C[N+]1(C)CCOC(O)(c2ccc(-c3ccc(C4(O)C[N+](C)(C)CCO4)cc3)cc2)C1 (centres unmarked)
  Duration / reversibility of effect: short-lived, and is reversible
Treated animals
  Inhibition of high affinity transport system for choline: Potent inhibition
